{"source": "patent US8207309B2", "about": "“Human synthetic single-chain antibodies directed against the common epitope of mutant P53 and their uses” (Ramot at Tel-Aviv University Ltd., priority 2005, dated 2012)", "molecules": {"B1": {"name": "A4 scFv: human scFv clone; VL CDRs SEQ ID NOs:36-38 (protein)", "scFv": "VQLLESGGGLVQPGGSLRLSCAASGFTFSGYWMHWVRQAPGKGLEWVSEISGSGDSTHYGDSVKGRFTISRDNSKNTLYLQMNSLRAEDTAVYYCARGRNGSLDYWGQGTLVTVSSGSAGGGGSGGGGSGGGGSDIVLTQPPSASGTPGQRVTISCTGNSSNIGAGYDVHWYQQLPGKAPKLLIYSNNQRPSGVPDRFSGSKSGTSASLAISGLRSEDEADYYCAAWDDSLSSVVFGGGTKLTV"}}, "tested_on": "H1299-R175H cells", "experiment": "Susceptibility to chemotherapy drugs of cells stably expressing scFv F2", "assay_type": "cell-based, human", "conditions": "FIG. 5", "data": [{"molecule": "B1", "values": [{"measurement": "susceptibility of cancer cells to chemotherapy drugs", "value": "capable of increasing the susceptibility of cancer cells to chemotherapy drugs"}]}]}
